Test results reported in PubChem BioAssay AID720553 (National Center for Advancing Translational Sciences (NCATS), 2013).
This is a selection; strong and weak results do not stand in their true shares. Activity calls are given as the source filed them.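 How the source made its calls: active means maximum activity change below -70%; inconclusive means maximum activity change from -70% to -50%; inactive means maximum activity change above -50%.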

Tested on: Potassium voltage-gated channel subfamily H member 2, brain isoform KCNH2 3.1 (human)
Assay: qHTS for Inhibitors of KCHN2 3.1: Mutant qHTS
Settings: U2OS KCNH2 3.1, thallium flux FluxOr; hits give low values
How it was run: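 Thallium flux read-out: FluxOr dye with Red40 quencher in HBSS/HEPES, 45 min at RT. Rate constants from kinetic reads were normalized to positive and negative DMSO controls. Cells: U2OS virally expressing the 3.1 isoform.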
On the % scale 0 is the no-effect control and ±100 the full control effect.

Structure (SMILES)	activity change
CC(C)(C)OC(=O)N1CCC(N(C(=O)c2ccccc2)c2ccc(Cl)cc2)CC1	inactive: 23.4%
CN(C)c1ccc(C(=O)NCC2(N3CCCCC3)CCCCC2)cc1	inactive: 2.95%
O=C(NCC1(N2CCCCC2)CCCCC1)c1ccco1	inactive: -14.3%
CCN1CCC(Nc2cccc(F)c2)CC1	inactive: -0.122%
Cc1ccccc1NC1(C#N)CCN(Cc2ccccc2)CC1	inactive: -5.14%
Fc1ccccc1NC1CCN(Cc2ccccc2)CC1	inactive: -3.81%
Cc1ccc(Nc2c([N+](=O)[O-])cc([N+](=O)[O-])cc2[N+](=O)[O-])cc1	inactive: -0.304%
Cc1ccc(C(=O)NCC2(N3CCCCC3)CCCCC2)o1	inactive: 0.986%
Cc1ccc(NC2(C#N)CCN(Cc3ccccc3)CC2)cc1	inactive: 5.71%
CC(=O)N(c1ccccc1)C1CCNCC1	inactive: 40.2%
COc1cc(OC)cc(C(=O)NCC2(N3CCCCC3)CCCCC2)c1	inactive: 10.7%
CN1CCC(Nc2ccc(Cl)cc2)CC1	inactive: -24.1%
COc1cc(OC)cc(C(=O)NCC2(N3CCOCC3)CCCCC2)c1	inactive: -12.4%
COc1cccc(C(=O)N(c2cc(C)cc(C)c2)C2CCN(C(=O)OC(C)(C)C)CC2)c1	inactive: -6.16%
CCC(CO)(C(=O)OC1CN2CCC1CC2)c1ccccc1 (stereo not given)	inactive: 1.58%
O=C(O)C1(Nc2ccccc2)CCN(Cc2ccccc2)CC1	inactive: 1.01%
CC(C)(C)OC(=O)N1CCC(Nc2ccccc2)CC1	inactive: -3.28%
CCCOc1ccc(C(=O)NCC2(N(C)C)CCCCC2)cc1	inactive: -10.1%
CN1CCC(Nc2ccc(F)c(Cl)c2)CC1	inactive: 5.99%
CCOc1ncccc1C(=O)NCC1(N2CCOCC2)CCCCC1	inactive: 9.92%
